Results as given in article PMC7703809 (2020).
Non-standard residues stand in square brackets, D forms with d. No end group written: not given here. *: point of attachment. Benzoyl(4-octyl) = CCCCCCCCc1ccc(C(=O)*)cc1; pT = C[C@@H](OP(=O)(O)O)[C@H](N)C(=O)O

Experiments:
[1] = biological target: T1, PLK1 fluorescein tracer phosphopeptide (also: fluorescein label, place not given here); assay: fluorescence polarization
T1 chain: MAGPMQS[pT]PLNGAKK

PBIP phosphopeptide 4 = biological target: T2, PBIP phosphopeptide 4 (Homo sapiens); assay: fluorescence polarization competition
T2 chain: Ac-PLHS[pT]AI

chimeric peptide 9 = biological target: T3, chimeric peptide 9; assay: fluorescence polarization competition
T3 chain: Ac-PLHS[pT]PKNG

PBIP phosphopeptide 6 = biological target: T4, PBIP phosphopeptide 6 (Homo sapiens); assay: fluorescence polarization competition
T4 chain: Ac-PLHS[pT]A

FLIP 18 = biological target: T5, FLIP 18; assay: fluorescence polarization competition
T5 chain: {4‑propylaminobenzoyl}-S[pT]PNGL

chimeric peptide 8 = biological target: T6, chimeric peptide 8; assay: fluorescence polarization competition
T6 chain: GPLATS[pT]PNGL

FLIP 12 = biological target: T7, FLIP 12; assay: fluorescence polarization competition
T7 chain: {4‑ethoxybenzoyl}-S[pT]PNGL

chimeric peptide 3 = biological target: T8, chimeric peptide 3; assay: fluorescence polarization competition
T8 chain: Ac-PLHS[pT]PNGL

PBIP phosphopeptide 5 = biological target: T9, PBIP phosphopeptide 5 (Homo sapiens); assay: fluorescence polarization competition
T9 chain: Ac-LHS[pT]AI

FLIP 17 = biological target: T10, FLIP 17; assay: fluorescence polarization competition
T10 chain: {4‑methylaminobenzoyl}-S[pT]PNGL

FLIP 15 = biological target: T11, FLIP 15; assay: fluorescence polarization competition
T11 chain: {4‑phenethoxybenzoyl}-S[pT]PNGL

FLIP 19 = biological target: T12, FLIP 19; assay: fluorescence polarization competition
T12 chain: {4‑butylbenzoyl}-S[pT]PNGL

FLIP 16 = biological target: T13, FLIP 16; assay: fluorescence polarization competition
T13 chain: {4‑thiomethylbenzoyl}-S[pT]PNGL

PLK3 consensus peptide 7 = biological target: T14, PLK3 consensus peptide 7; assay: fluorescence polarization competition
T14 chain: GPLATS[pT]PKNG

FLIP 14 = biological target: T15, FLIP 14; assay: fluorescence polarization competition
T15 chain: {4‑fluorobenzyloxybenzoyl}-S[pT]PNGL

Cdc25C phosphopeptide 1 = biological target: T16, Cdc25C phosphopeptide 1 (Homo sapiens); assay: fluorescence polarization competition
T16 chain: LLCS[pT]PNGL

FLIP 20 = biological target: T17, FLIP 20; assay: fluorescence polarization competition
T17 chain: {4‑hexylbenzoyl}-S[pT]PNGL

FLIP 11 = biological target: T18, FLIP 11; assay: fluorescence polarization competition
T18 chain: {4‑methoxybenzoyl}-S[pT]PNGL

FLIP 21 = biological target: T19, FLIP 21; assay: fluorescence polarization competition
T19 chain: {Benzoyl(4-octyl)}-S[pT]PNGL

B1: PLK1 PBD 367-603 (protein)
chain: GEVVDCHLSDMLQQLHSVNASKPSERGLVRQEEAEDPACIPIFWVSKWVDYSDKYGLGYQLCDNSVGVLFNDSTRLILYNDGDSLQYIERDGTESYLTVSSHPNSLMKKITLLKYFRNYMSEHLLKAGANITPREGDELARLPYLRTWFRTRSAIILHLSNGSVQINFFQDHTKLILCPLMAAVTYIDEKRDFRTYRLSLLEEYGCCKELASRLRYARTMVDKLLSSRSASNRLKAS
- Kd [1]: 0.0046 µM
- IC50 (PBIP phosphopeptide 4): 0.064 µM
- IC50 (chimeric peptide 9): 0.032 µM
- IC50 (PBIP phosphopeptide 6): 0.46 µM
- IC50 (FLIP 18): 5.4 µM
- IC50 (chimeric peptide 8): 0.011 µM
- IC50 (FLIP 12): 15.9 µM
- IC50 (chimeric peptide 3): 0.06 µM
- IC50 (PBIP phosphopeptide 5): 1.57 µM
- IC50 (FLIP 17): 11.2 µM
- IC50 (FLIP 15): 4.5 µM
- IC50 (FLIP 19): 2.5 µM
- IC50 (FLIP 16): 3 µM
- IC50 (PLK3 consensus peptide 7): 0.0057 µM
- IC50 (FLIP 14): 5 µM
- IC50 (Cdc25C phosphopeptide 1): 0.17 µM
- IC50 (FLIP 20): 1 µM
- IC50 (FLIP 11): 21.9 µM
- IC50 (FLIP 21): 0.36 µM
